Measured values taken from PubChem BioAssay AID720647 (Broad Institute, 2013).
This is a selection; strong and weak results do not stand in their true shares. Calls of active or inactive are those of the source.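 Rule for the calls: active = drop in luminescence signal, shown as inhibition above about 50% in the replicate tests (limit read from the data, passing the limit was not always enough); inconclusive = probably only some replicates passing the limit; inactive = the rest.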

What follows are compounds tested on Drosophila bursicon receptor LGR2 (rickets) (assay: inhibitors of bursicon-induced LGR2 CRE-luciferase signal, primary screen, cell-based, HEK293, CRE-luciferase reporter, bursicon stimulation (AID 720647;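 note: agonist challenge used bursicon conditioned medium at about half maximal strength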)). Conditions: bursicon-stimulated, 4 h, at 9.99 µM, active compounds read high.
With `O=C(O)C(O)c1ccc(N(CCCl)CCCl)cc1` (stereo not given) the inhibition was inactive: -6.65%. For `CCOC(=O)Nc1ccc([As](=O)(O)O)c(O)c1`, the inhibition was inactive: -8.19%. `CC1CCNP(=O)(N(CCCl)CCCl)O1` (stereo not given) was tested, and the inhibition was inactive: -28.5%. For `COP(=O)(OC)N1CC1c1ccccc1` (stereo not given), the inhibition was inactive: -1.71%. With `Cc1cc(SC(NC(=O)c2ccccc2)C(Cl)(Cl)Cl)nc(C(C)C)n1` (stereo not given) the inhibition was inactive: -2.74%. For `CCCCOc1ccc(C(=O)NCC2(N3CCCCC3)CCCCC2)cc1OC`, the inhibition was inactive: 2.15%. In the case of `CCOC(=O)Nc1cccc([As](=O)(O)O)c1`, the inhibition is reported as inactive: 1.01%. For `Cc1cc(SC(NC=O)C(Cl)(Cl)Cl)ncn1` (stereo not given), the inhibition was inactive: 3.8%. `O=P(Nc1ccccn1)(c1cccc2ccccc12)c1cccc2ccccc12` was tested, and the inhibition was inactive: 5.32%. For `O=[N+]([O-])c1ccc(Nc2ccc(Oc3ccc([N+](=O)[O-])cc3[N+](=O)[O-])cc2)c([N+](=O)[O-])c1`, the inhibition was inactive: 2.08%. For `COC(=O)C1(C)COP(=O)(N2CCCC2)OC1` (stereo not given), the inhibition was inactive: -4.63%. With `COP1(=S)c2c(C)nn(CCC#N)c2N=C(c2ccc(F)cc2)N1C` (stereo not given) the inhibition was inactive: 12.4%. For `O=C(O)C(=O)c1ccc(N(CCCl)CCCl)cc1`, the inhibition was inactive: 3.53%. In the case of `O=C(Nc1ccncc1[N+](=O)[O-])c1ccc([N+](=O)[O-])cc1[N+](=O)[O-]`, the inhibition is reported as inactive: 12.4%. With `O=C(OC1CN2CCC1CC2)c1cccc([N+](=O)[O-])c1` (stereo not given) the inhibition was inactive: -5.83%. For `CCOC(=O)c1ccc(NC(=O)C(C)(CCl)SC)cc1` (stereo not given), the inhibition was inactive: 12.5%. In the case of `Cc1c2c(nc3ccccc13)SC(C(Cl)Cl)C2` (stereo not given), the inhibition is reported as inactive: 9.49%. In the case of `Cc1cc(=O)[nH]c(N[N+](=O)[O-])n1`, the inhibition is reported as inactive: 19.7%. For `O=P1(N(CCCl)CCCl)OCCCN1CCCl` (stereo not given), the inhibition was inactive: 11.6%. `O=P1(N(CCCl)CCCl)Nc2ccccc2N1` was tested, and the inhibition was inactive: -39.9%. `COc1cc(I)ccc1[As](=O)(O)O` was tested, and the inhibition was inactive: -10%. With `O=[N+]([O-])c1cc(Oc2ccc([N+](=O)[O-])cc2C(F)(F)F)cc([N+](=O)[O-])c1` the inhibition was inactive: -6.2%. With `COc1ccc(N/C(=N/P(=O)(N2CCOCC2)N2CCOCC2)N2CCOCC2)cc1` the inhibition was inactive: 0.311%. In the case of `O=[N+]([O-])c1ccc(-c2cc([N+](=O)[O-])c(O)c([N+](=O)[O-])c2)cc1`, the inhibition is reported as inactive: 2.28%. In the case of `COc1cc(C(=O)NCC2(N3CCOCC3)CCCCC2)ccc1OCC(C)C`, the inhibition is reported as inactive: -12.9%. In the case of `C[As](=O)(O)c1cccc(C(=O)O)c1`, the inhibition is reported as inactive: -14%. For `O=[As](O)(c1ccc(O)cc1)c1ccccc1O`, the inhibition was inactive: 2.93%. With `Cc1ccc(OP(=O)(Nc2ccc([N+](=O)[O-])cn2)Oc2ccc(C)cc2)cc1` the inhibition was inactive: 2.41%. With `[N-]=[N+]=NC1CCCCC1NC(=O)c1cc([N+](=O)[O-])cc([N+](=O)[O-])c1` (stereo not given) the inhibition was inactive: -12%. For `COC(=O)C1(C)COP(=O)(N2CCCCCC2)OC1` (stereo not given), the inhibition was inactive: -4.43%. In the case of `CC(C)c1ccc(OP(=O)(Nc2ccccn2)Oc2ccccc2F)cc1` (stereo not given), the inhibition is reported as inactive: 4.45%. With `CC(C)NC(=O)NP(=O)(Oc1ccccc1)Oc1ccccc1` the inhibition was inactive: -5.45%. `O=P(Nc1nccs1)(Oc1ccccc1)Oc1ccccc1` was tested, and the inhibition was inactive: 4.5%. For `CCOP1(=S)c2c(C)nn(CCC#N)c2N=C(c2ccccc2F)N1C` (stereo not given), the inhibition was inactive: -2.57%. With `O=C(O)COc1ccc([As](=O)(O)O)cc1[N+](=O)[O-]` the inhibition was inactive: 8.98%. For `Nc1ccccc1[As](=O)(O)c1ccccc1`, the inhibition was inactive: 15%. With `NC(=O)Nc1ccc([As](=O)(O)O)cc1` the inhibition was inactive: -2.34%. With `CCOP1(=S)c2c(C)nn(CCC#N)c2N=C(c2ccc(F)cc2)N1C` (stereo not given) the inhibition was inactive: 4.4%. In the case of `N#CCCN(C(=O)COC(=O)C(O)(c1ccccc1)c1ccccc1)c1ccc(F)cc1`, the inhibition is reported as inactive: 2.08%. `CN(C(=O)Cc1ccc(Cl)c(Cl)c1)[C@H]1CC[C@@]2(CCCO2)C[C@@H]1N1CCCC1` was tested, and the inhibition was inactive: 0.056%. For `CN(C)C(=O)c1cc([N+](=O)[O-])cc2c1-c1c(cc([N+](=O)[O-])cc1[N+](=O)[O-])C2=O`, the inhibition was active: 99%. `O=C(OC1CN2CCC1CC2)c1ccc(Cl)cc1` (stereo not given) was tested, and the inhibition was inactive: 1.3%. For `CS(=O)(=O)c1ccc(Cl)c(NC(=O)COC(=O)C(O)(c2ccccc2)c2ccccc2)c1`, the inhibition was inactive: 0.651%. `O=[As](O)(O)c1cccnc1` was tested, and the inhibition was inactive: -5.27%. In the case of `COc1cc(C(=O)NCC2(N3CCOCC3)CCCCC2)cc(Cl)c1OC(C)C`, the inhibition is reported as inactive: 8.88%. `Cc1cccc(OCC(=O)OC2CN3CCC2CC3)c1` (stereo not given) was tested, and the inhibition was inactive: 11.7%. With `O=[As](O)(c1cccc(O)c1)c1cccc(O)c1` the inhibition was inactive: 1.39%. For `Nc1cccc2c([As](=O)(O)O)cccc12`, the inhibition was inactive: -0.13%. For `Cc1ccc(NCCc2c([N+](=O)[O-])cc([N+](=O)[O-])cc2[N+](=O)[O-])cc1`, the inhibition was inactive: -22.5%. In the case of `CCCOP(=S)(Nc1nc(N)cc(=O)[nH]1)OCCC`, the inhibition is reported as inactive: 24.3%. With `CCOP(=O)(Nc1cccc2ccccc12)OCC` the inhibition was inactive: -1.37%. With `COc1cc(C2NCCC3(OCCO3)C2(C)C)cc(OC)c1OC` (stereo not given) the inhibition was inactive: 4.81%. For `CCOP(=O)(NC(=NC(C)c1ccccc1)NC(C)c1ccccc1)OCC` (stereo not given), the inhibition was inactive: -3.45%. For `CCC1=CC2Cc3nc4ccc(Cl)cc4c(N)c3C(C1)C2` (stereo not given), the inhibition was inactive: 22.8%. In the case of `CCOP(=O)(Nc1ccc(C)cn1)OCC`, the inhibition is reported as inactive: 7.81%. In the case of `CN(CCCl)Cc1cc(Cl)c(NC2=NCCN2)c(Cl)c1`, the inhibition is reported as inactive: 6.3%. With `CC(C)(C)C(=O)NC(Sc1ncccn1)C(Cl)(Cl)Cl` (stereo not given) the inhibition was inactive: 0.449%. For `O=P1(N(CCCl)CCCl)NCCC(C(F)(F)F)O1` (stereo not given), the inhibition was inactive: 13.6%. With `COc1ccccc1CNC(=O)COC(=O)C(O)(c1ccccc1)c1ccccc1` the inhibition was inactive: -2.01%. With `CN(C(=O)Cc1ccc(Cl)c(Cl)c1)C1CCCC[C@@H]1N1CCCC1` (stereo not given in full) the inhibition was inactive: 3.72%. For `CN(C(=O)Cc1ccc(Cl)c(Cl)c1)[C@@H]1CCCC[C@H]1N1CCCC1`, the inhibition was inactive: -3.14%. `CC(C)/C=N\N=C(\N)N[N+](=O)[O-]` was tested, and the inhibition was inactive: 18%. With `Cc1ccc(C(=O)OC2CN3CCC2CC3)cc1` (stereo not given) the inhibition was inactive: -3.09%. With `CC1CCC(C(C)C)C(OP(=O)(Nc2ccccn2)c2ccccc2)C1` (stereo not given) the inhibition was inactive: 16.2%. In the case of `CN(C)C1(CNC(=O)c2ccc(S(C)(=O)=O)cc2)CCCCC1`, the inhibition is reported as inactive: -1.82%. For `CCCC1OP(=O)(Nc2ccccc2)OCC1CC` (stereo not given), the inhibition was inactive: -0.685%. In the case of `O=C(/C=C/c1ccccc1)OC1CN2CCC1CC2` (stereo not given), the inhibition is reported as inactive: -12.3%. `Cc1ccc(S(=O)(=O)N(CCCN)CCCc2c(C)nc(N)[nH]c2=O)cc1` was tested, and the inhibition was inactive: -3.03%. With `Nc1cccc([As](=O)(O)c2ccccc2)c1` the inhibition was inactive: -2.25%. For `O=[As](O)(c1cccs1)c1cccs1`, the inhibition was inactive: 20.7%. In the case of `NS(=O)(=O)c1cccc(NC(=O)COC(=O)C(O)(c2ccccc2)c2ccccc2)c1`, the inhibition is reported as inactive: 6.87%. In the case of `CN(C)C1(CNC(=O)c2ccc(Cl)c(S(N)(=O)=O)c2)CCCCC1`, the inhibition is reported as inactive: -5.47%. With `O=P(Nc1ccccn1)(c1ccc(Br)cc1)c1ccc(Br)cc1` the inhibition was inactive: 13%. With `COc1ccc(N)c([N+](=O)[O-])c1[N+](=O)[O-]` the inhibition was inactive: -10.8%. In the case of `Nc1ccc(CCCCOc2ccccc2)cc1`, the inhibition is reported as inactive: -45.1%. For `C[C@H]1OP(=O)(Oc2ccccc2)[C@H](O)[C@H](O)[C@H]1N=[N+]=[N-]` (stereo not given in full), the inhibition was inactive: -0.866%. `O=P(Nc1nc2ccccc2s1)(c1ccccc1)c1ccccc1` was tested, and the inhibition was inactive: 1.01%. `O=[As](O)(c1ccccc1)c1ccc(O)cc1` was tested, and the inhibition was inactive: -17.8%. In the case of `O=[N+]([O-])c1ncn(CCn2cnc([N+](=O)[O-])n2)n1`, the inhibition is reported as inactive: -4.91%. With `CC(=O)NC(SC(=S)N(C)C)C(Cl)(Cl)Cl` (stereo not given) the inhibition was inactive: 3.73%. In the case of `C(Cc1nn[nH]n1)Cc1nn[nH]n1`, the inhibition is reported as inactive: 5.28%. With `Nc1ccc([As](=O)(O)c2ccc([N+](=O)[O-])cc2)cc1` the inhibition was inactive: 8.09%. In the case of `C/C(N)=N\P(=O)(OCc1ccccc1)OCc1ccccc1`, the inhibition is reported as inactive: 6.27%. For `CC(C)C(=O)NC(Sc1ccccc1)C(Cl)(Cl)Cl` (stereo not given), the inhibition was inactive: 14.4%. With `CCOc1ccc(C2=NCC(CBr)S2)cc1` (stereo not given) the inhibition was inactive: -8.11%. In the case of `CC(C)(C)C(=O)NC(Sc1ccccc1)C(Cl)(Cl)Cl` (stereo not given), the inhibition is reported as inactive: -1.94%. `CCc1cc(O)c([N+](=O)[O-])c(C)c1[N+](=O)[O-]` was tested, and the inhibition was inactive: -2.98%. `C[C@H]1OP(=O)(Oc2ccccc2)C[C@@H]2O[C@@H]21` (stereo not given in full) was tested, and the inhibition was inactive: 1.14%. `Cc1ccccc1CN(C)C(=O)COC(=O)C(O)(c1ccccc1)c1ccccc1` was tested, and the inhibition was inactive: 10.2%. With `COC(=O)C1(C)COP(=O)(NCc2ccccc2)OC1` (stereo not given) the inhibition was inactive: 3.45%. For `CC(=O)c1ccc(N2CC2c2ccncc2)cc1` (stereo not given), the inhibition was inactive: 2.72%. `N#C/C(=C\c1ccc(N(CCBr)CCBr)cc1)C(N)=O` was tested, and the inhibition was inactive: -19%. `CC(=O)Nc1ccc([As](=O)(O)O)c(O)c1` was tested, and the inhibition was inactive: -2.14%. In the case of `c1ccc(-c2nn[nH]n2)c(-c2nn[nH]n2)c1`, the inhibition is reported as inactive: 9.09%. With `O=C(NC1CCS(=O)(=O)C1)NP(=S)(Oc1ccccc1)Oc1ccccc1` (stereo not given) the inhibition was inactive: -32%. With `CCNC(=S)/N=C(\N)N[N+](=O)[O-]` the inhibition was inactive: 6.81%. For `O=P1(N(CCCl)CCCl)OCCC2CCCCN21` (stereo not given), the inhibition was inactive: -20.9%. With `O=C(OC1CN2CCC1CC2)c1ccccc1` (stereo not given) the inhibition was inactive: -15.1%. `Cc1ccc(OP(=O)(Nc2ccccn2)Oc2ccc(C)cc2)cc1` was tested, and the inhibition was inactive: 4.32%. In the case of `CC(=O)NC(SC(=S)N(CC(C)C)CC(C)C)C(Cl)(Cl)Cl` (stereo not given), the inhibition is reported as inactive: 3.62%.
